In PubChem BioAssay AID1984 (Sanford-Burnham Center for Chemical Genomics, 2009):
The entries are a selection whose mix differs from that of the whole data set. Some results for these compounds are left out of this collection, so the calls shown say nothing about other tests. The source made the active and inactive calls.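 Rule for the calls: active = EGFP signal decrease of at least 30% at 10 µM or well 3 SD below plate mean, unless failing retest; inactive = the rest, including hits failing retest or dose response.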

By UniProt entry, the sequences of proteins in these tests, tags left out. Residues count along the entry.
UniProt Q05BA5, 1-1403: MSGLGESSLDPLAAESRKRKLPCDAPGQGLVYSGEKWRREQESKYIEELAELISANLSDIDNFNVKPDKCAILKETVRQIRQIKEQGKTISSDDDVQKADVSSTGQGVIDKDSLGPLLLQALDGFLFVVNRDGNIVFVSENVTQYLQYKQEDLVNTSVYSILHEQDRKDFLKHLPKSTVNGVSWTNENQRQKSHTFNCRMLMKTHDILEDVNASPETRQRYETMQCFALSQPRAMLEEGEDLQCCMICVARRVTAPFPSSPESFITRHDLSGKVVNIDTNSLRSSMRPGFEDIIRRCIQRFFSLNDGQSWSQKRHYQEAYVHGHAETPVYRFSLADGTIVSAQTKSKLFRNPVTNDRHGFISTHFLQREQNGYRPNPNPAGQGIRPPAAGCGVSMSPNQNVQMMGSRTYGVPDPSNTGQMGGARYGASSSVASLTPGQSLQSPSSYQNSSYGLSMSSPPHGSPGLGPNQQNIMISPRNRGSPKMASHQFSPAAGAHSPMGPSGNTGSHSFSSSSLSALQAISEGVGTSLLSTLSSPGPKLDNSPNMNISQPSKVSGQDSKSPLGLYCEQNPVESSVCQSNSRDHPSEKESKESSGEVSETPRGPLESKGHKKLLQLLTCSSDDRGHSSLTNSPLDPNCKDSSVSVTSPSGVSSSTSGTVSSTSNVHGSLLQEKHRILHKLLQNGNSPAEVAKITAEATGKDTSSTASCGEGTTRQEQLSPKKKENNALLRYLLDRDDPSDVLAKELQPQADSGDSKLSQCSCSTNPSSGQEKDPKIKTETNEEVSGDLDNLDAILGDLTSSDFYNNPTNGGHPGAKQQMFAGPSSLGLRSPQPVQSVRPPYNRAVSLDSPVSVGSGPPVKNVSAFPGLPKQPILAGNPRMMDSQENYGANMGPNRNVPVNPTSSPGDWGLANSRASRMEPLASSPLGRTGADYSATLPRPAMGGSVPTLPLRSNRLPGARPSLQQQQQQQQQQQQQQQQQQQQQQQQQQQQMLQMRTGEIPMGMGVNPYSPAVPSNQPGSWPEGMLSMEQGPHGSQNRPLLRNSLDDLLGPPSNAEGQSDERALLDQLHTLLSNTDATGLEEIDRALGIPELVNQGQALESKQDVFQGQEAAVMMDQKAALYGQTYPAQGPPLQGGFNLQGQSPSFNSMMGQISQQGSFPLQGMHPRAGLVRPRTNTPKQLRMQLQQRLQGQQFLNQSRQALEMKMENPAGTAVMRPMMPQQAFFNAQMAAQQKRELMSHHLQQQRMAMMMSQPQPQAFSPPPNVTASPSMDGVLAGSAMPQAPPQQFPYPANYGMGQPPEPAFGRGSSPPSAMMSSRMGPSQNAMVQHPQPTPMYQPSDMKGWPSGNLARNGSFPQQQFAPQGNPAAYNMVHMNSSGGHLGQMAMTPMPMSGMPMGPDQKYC

The molecules below were run against p/CIP-EGFP fusion (nuclear receptor coactivator 3, mouse) (UniProt Q05BA5) (assay: p/CIP-EGFP fusion destabilizers, primary screen, fluorescence, F442A cells (AID 1984)). Conditions: 16 h, at 10 µM, hits give high values.

Structure (SMILES) | decrease of EGFP signal
CC(C)N1C(=O)CC2(CCN(CCOC(=O)C(O)(c3ccccc3)c3ccccc3)CC2)C1=O | inactive: 5.3%
CCN(CC)CC(C)C(C)OC(=O)C(O)(c1ccccc1)c1ccccc1 (centres undefined) | inactive: 7.4%
COc1cc(SC)ccc1C(=O)NCC1(N(C)C)CCCCC1 | inactive: 0.4%
Cc1ccc(C(=O)NCC2(N3CCCCC3)CCCCC2)cc1 | inactive: -7.3%
O=C(NCC1(N2CCCCC2)CCCCC1)c1cc([N+](=O)[O-])ccc1Cl | inactive: -3.8%
CN1[C@@H]2CC[C@H]1CC(OC(=O)C(O)(c1ccccc1)c1ccccc1)C2 (some centres undefined) | inactive: 8.1%
C=CCN1CCN(CCOC(=O)C(O)(c2ccccc2)c2ccccc2)CC1 | inactive: -5.7%
O=C(NCC1(N2CCCCC2)CCCCC1)c1cc(F)c(F)cc1Cl | inactive: -7.6%
CCN1CCCC(OC(=O)C2(O)c3ccccc3C=Cc3ccccc32)C1 (centres undefined) | inactive: -4.5%
Cc1cc(C(=O)NCC2(N3CCCCC3)CCCCC2)ccc1[N+](=O)[O-] | inactive: -15.2%
O=C(NCC1(N2CCCCC2)CCCCC1)c1cccc(Br)c1 | inactive: -3.9%
COc1ccc(C(=O)NCC2(N(C)C)CCCCC2)cc1 | inactive: -1.6%
Cc1ccccc1C(=O)NCC1(N2CCCCC2)CCCCC1 | inactive: -14.9%
CN(C)c1ccc(C(=O)NCC2(N(C)C)CCCCC2)cc1 | inactive: -8.9%
CN(C)C1CCCC1OC(=O)C(O)(c1ccccc1)c1ccccc1 (centres undefined) | inactive: -19.9%
COc1cccc(C(=O)NCC2(N3CCCCC3)CCCCC2)c1 | inactive: -11.8%
COc1ccc(Cl)cc1C(=O)NCC1(N(C)C)CCCCC1 | inactive: -12.7%
O=C(NCC1(N2CCCCC2)CCCCC1)c1cccc(Cl)c1 | inactive: 11%
CN(C)C1(CNC(=O)c2ccc(Br)cc2)CCCCC1 | inactive: -10.2%
COc1cc(C(=O)NCC2(N(C)C)CCCCC2)c([N+](=O)[O-])cc1OC | inactive: -9.7%
COc1ccc(Br)c(C(=O)NCC2(N3CCCCC3)CCCCC2)c1 | inactive: 8.8%
CN(C)c1cccc(C(=O)NCC2(N(C)C)CCCCC2)c1 | inactive: 3.5%
CC(C)Oc1ccc(C(=O)NCC2(N(C)C)CCCCC2)cc1 | inactive: -8%
O=C(OC1CN2CCC1CC2)C(CO)(c1ccccc1)c1ccccc1 (centres undefined) | inactive: 6.3%
